The values that follow come from patent US20220397564A1, “ENGINEERING SPATIAL-ORGANIZED CARDIAC ORGANOIDS FOR DEVELOPMENTAL TOXICITY TESTING” (priority 2021, published 2022).

This data set deals with hiPSC-based cardiac organoids. Kind of data set: cardiac developmental toxicity assay on hiPSC-derived cardiac organoids (differentiation, contractile behavior, 3D morphology).

With `O=C([O-])[O-].[Li+].[Li+]` [Lithium Carbonate], for the setting “600 μm organoids, continuous exposure from Day 1, read Day 20, overall over tested concentrations”, the “developmental toxicity on cardiac organoids (overall)” value is reported as “mild developmental toxicity”. Besides, where the note is “high / higher concentrations”, the area ratio result is on record as “moderate toxicity”.
